# Measured values from the supplement of paper PMC6411743.
# The chains behind the UniProt entries cited, without tags or fusion partners.
# UniProt P59768, whole entry: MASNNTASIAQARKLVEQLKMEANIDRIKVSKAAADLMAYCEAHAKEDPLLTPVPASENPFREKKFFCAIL
# ± gives the standard deviation of the averaged measurements. The list shows a part of the results, in another mix than the full data.
# Target: G3V2N0 and related entries (UniProt P59768)
# Experiment: NP40-soluble protein abundance relative to vehicle (solubility fold change) (ratio); higher = more soluble protein in presence of ATP
# How it was run: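 Across three independent experiments, values are fold changes against the detergent-processed vehicle for each replicate, based on vsn-normalised intensities. The samples were Jurkat crude lysate treated with eight concentrations (0.1 to 10 mM) for 10 min at room temperature and then 3 min at 37 °C. Lysate was solubilised with 0.8% NP40 and benzonase, ultracentrifuged, and the supernatant analysed by TMT-labelled LC-MS/MS.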
smiles,measurement,setting,value
Nc1ncnc2c1ncn2[C@@H]1O[C@H](COP(=O)(O)OP(=O)(O)OP(=O)(O)O)[C@@H](O)[C@H]1O [adenosine triphosphate],NP40-soluble protein abundance,concentration: 1mM,0.859 ± 0.14
same,NP40-soluble protein abundance,concentration: 2mM,0.803 ± 0.1
same,NP40-soluble protein abundance,concentration: 4mM,0.899 ± 0.084
same,NP40-soluble protein abundance,concentration: 6mM,0.884 ± 0.11
same,NP40-soluble protein abundance,concentration: 8mM,0.818 ± 0.083
same,NP40-soluble protein abundance,concentration: 10mM,0.798 ± 0.13
